Reference: patent US10723742B2 (priority 2015, dated 2020)

Target: human LSD1 protein (Homo sapiens (Human), UniProt O60341)

With `Cc1ccc(-c2ccc(C(=O)N3CC[C@H](N)C3)cc2-c2ccc(C(F)(F)F)cc2)cc1` [Comparative Example 5, (S)-(3-aminopyrrolidin-1-yl)(4-methyl-4″-(trifluoromethyl)-[1,1′:2′,1″-terphenyl]-4′-yl)methanone] the LSD1 inhibitory activity was “did not have LSD1 inhibitory activity”.
